Values of other authors as cited in patent US5375693A (Sepracor, Inc., priority 1994, dated 1994).

Legend:
H-1 histamine receptor [1] = details: cited from earlier work
H-2 histamine receptor [2] = details: guinea pig; cited from earlier work
H-1 histamine receptor [3] = details: Rhesus monkeys; cited from earlier work
H-2 histamine receptor [4] = details: isolated guinea pig atria; cited from earlier work

SMILES: CC(C)(C)c1ccc(C(O)CCCN2CCC(C(O)(c3ccccc3)c3ccccc3)CC2)cc1 (racemic) [Terfenadine]
- effect of histamine in the guinea pig isolated ileum (H-1 histamine receptor [1]): antagonizes the effect of histamine in the guinea pig isolated ileum
- effect on histamine-induced gastric acid secretion (H-2 histamine receptor [2]): no effect on histamine-induced gastric acid secretion
- histamine-induced whealing in the skin (H-1 histamine receptor [3]): suppresses histamine-induced whealing in the skin of Rhesus monkeys
- chronotropic effect of histamine on atria (H-2 histamine receptor [4]): nor does it alter the chronotropic effect of histamine on atria
